Data reported in paper PMC3947174 (Structure (London, England : 1993), 2013).
Values belong to the compound of their own block, whether it stands above or below them.

Key:
CALP E317A = CALP E317A (Homo sapiens, UniProt Q9HD26, E317A); assay: FP competition binding to CALP E317A mutant
CALP (CAL PDZ domain) = CALP (CAL PDZ domain) (Homo sapiens, UniProt Q9HD26); assay: FP competition; assay type: binding; conditions: reporter F*-iCAL36, PDZ ~[…] Kd, triplicate experiments
N2P2 (NHERF2 PDZ2) = N2P2 (NHERF2 PDZ2) (Homo sapiens, UniProt Q15599); assay: FP displacement binding to NHERF2 PDZ2
iCAL36TRL = assay: fluorescence polarization competition
iCAL36VQDTRL = assay: fluorescence polarization competition
[1] = biological target: histone H4 transcription factor (Homo sapiens); assay: fluorescence polarization competition
L-iCAL36 = assay: fluorescence polarization competition
[2] = biological target: HPV16 E6 (Human papillomavirus type 16); assay: fluorescence polarization competition
[3] = biological target: proteasome subunit beta type-9 (Homo sapiens); assay: fluorescence polarization competition
iCAL36QDTRL = assay: fluorescence polarization competition
[4] = biological target: semaphorin 4G isoform 3 (Homo sapiens); assay: fluorescence polarization competition
iCAL36Q-4 = assay: fluorescence polarization competition
H-iCAL36 = assay: fluorescence polarization competition
V-iCAL36 = assay: fluorescence polarization competition
iCAL36 = assay: fluorescence polarization competition; conditions: cited from earlier work
iCAL36VQD-3 = assay: fluorescence polarization competition
[5] = biological target: insulin-like growth factor-binding protein 3 receptor (Homo sapiens); assay: fluorescence polarization competition

- Ki (CALP (CAL PDZ domain)): 29 ± 8 µM
Compound: CC(C)C[C@H](NC(=O)[C@H](CCCNC(=N)N)NC(=O)[C@@H](NC(=O)[C@H](CCCNC(=N)N)NC(=O)[C@H](CO)NC(=O)[C@H](Cc1c[nH]c2ccccc12)NC(=O)[C@H](Cc1c[nH]cn1)NC(=O)[C@H](CO)NC(=O)[C@H](CCC(=O)O)NC(=O)[C@@H](N)CCCNC(=N)N)[C@@H](C)O)C(=O)O [TM219_HUMAN]

- Ki (CALP (CAL PDZ domain)): 14.8 ± 3.5 µM
- Ki (N2P2 (NHERF2 PDZ2)): 450 ± 150 µM
Compound: CC[C@H](C)[C@H](NC(=O)[C@@H](NC(=O)[C@H](CO)NC(=O)[C@@H](NC(=O)[C@H](CCC(N)=O)NC(=O)[C@H](Cc1c[nH]c2ccccc12)NC(=O)[C@H](CCCNC(=N)N)NC(=O)[C@H](CO)NC(=O)[C@H](CC(N)=O)NC(=O)[C@H](C)N)[C@@H](C)O)[C@@H](C)CC)C(=O)O [iCAL36Q^-4]

- Ki (CALP (CAL PDZ domain)): 4.5 ± 0.8 µM
- Ki (CALP E317A): 2.2 ± 1.2 µM
Compound: CC(C)C[C@H](NC(=O)[C@H](CCCNC(=N)N)NC(=O)[C@@H](NC(=O)[C@@H](NC(=O)[C@@H]1CCCN1C(=O)[C@H](Cc1c[nH]c2ccccc12)NC(=O)[C@H](CCCNC(=N)N)NC(=O)[C@H](CO)NC(=O)[C@H](CC(N)=O)NC(=O)[C@H](C)N)[C@@H](C)O)[C@@H](C)O)C(=O)O [iCAL36TRL]

- Ki (CALP (CAL PDZ domain)): 230 ± 30 µM
- Ki (CALP E317A): 140 ± 40 µM
Compound: CC(C)C[C@H](NC(=O)[C@H](CCCNC(=N)N)NC(=O)[C@@H](NC(=O)[C@H](CC(=O)O)NC(=O)[C@H](CCC(N)=O)NC(=O)[C@@H](NC(=O)[C@H](CCCNC(=N)N)NC(=O)[C@H](CO)NC(=O)[C@H](CC(N)=O)NC(=O)[C@H](C)N)C(C)C)[C@@H](C)O)C(=O)O [iCAL36VQDTRL]

- Ki (N2P2 (NHERF2 PDZ2)): 420 ± 120 µM
- Ki (CALP E317A): 770 ± 50 µM
Compound: CC[C@H](C)[C@H](NC(=O)[C@@H](NC(=O)[C@H](CO)NC(=O)[C@H](CC(=O)O)NC(=O)[C@H](CCC(N)=O)NC(=O)[C@@H](NC(=O)[C@H](CCCNC(=N)N)NC(=O)[C@H](CO)NC(=O)[C@H](CC(N)=O)NC(=O)[C@H](C)N)C(C)C)[C@@H](C)CC)C(=O)O [iCAL36VQD^-3]

Further lines, the compound ahead of its results:

Compound: CC(C)C[C@H](NC(=O)[C@H](CCCNC(=N)N)NC(=O)[C@@H](NC(=O)[C@@H](NC(=O)[C@H](CCC(N)=O)NC(=O)[C@@H](NC(=O)[C@H](CCC(=O)O)NC(=O)[C@H](CCC(=O)O)NC(=O)[C@H](CCC(=O)O)NC(=O)[C@@H](N)[C@@H](C)O)C(C)C)[C@@H](C)O)[C@@H](C)O)C(=O)O [CFTRT^-3]
- Ki (CALP E317A): 15.1 ± 2 µM

Compound: CC(C)[C@H](NC(=O)[C@H](CCCNC(=N)N)NC(=O)[C@@H](NC(=O)[C@H](C)NC(=O)[C@H](Cc1ccccc1)NC(=O)[C@H](Cc1c[nH]c2ccccc12)NC(=O)[C@H](CO)NC(=O)[C@H](CS)NC(=O)CNC(=O)[C@@H](N)CS)[C@@H](C)O)C(=O)O [HINFP_HUMAN]
- Ki (CALP (CAL PDZ domain)): 46 ± 24 µM

Compound: CC(C)C[C@H](NC(=O)[C@H](CCCNC(=N)N)NC(=O)[C@H](CO)NC(=O)CNC(=O)[C@H](CCC(=O)O)NC(=O)[C@H](Cc1c[nH]c2ccccc12)NC(=O)[C@@H](NC(=O)[C@H](CCC(=O)O)NC(=O)[C@H](Cc1ccccc1)NC(=O)CN)[C@@H](C)O)C(=O)O [Peptide B4DZW2_HUMAN]
- Ki (CALP (CAL PDZ domain)): 120 ± 60 µM

Compound: CC(C)[C@H](NC(=O)[C@H](CCCNC(=N)N)NC(=O)[C@H](CO)NC(=O)[C@H](Cc1ccccc1)NC(=O)[C@H](CO)NC(=O)[C@H](Cc1c[nH]c2ccccc12)NC(=O)[C@@H]1CCCN1C(=O)[C@H](CO)NC(=O)[C@H](Cc1c[nH]cn1)NC(=O)[C@@H]1CCCN1)C(=O)O [SEM4G_HUMAN]
- Ki (CALP (CAL PDZ domain)): 46 ± 14 µM

Compound: CALP E317A PDZ (from UniProt Q9HD26)
- Ki (iCAL36TRL): 2.2 µM
- Ki (iCAL36VQDTRL): 140 µM

Compound: CALP PDZ (from UniProt Q9HD26)
- Ki (iCAL36TRL): 4.5 µM
- Ki (iCAL36VQDTRL): 230 µM
- Ki [1]: 46 µM
- Ki (L-iCAL36): 68 µM
- Ki [2]: 340 µM
- Ki [3]: 120 µM
- Ki (iCAL36QDTRL): 56.2 µM
- Ki [4]: 46 µM
- Ki (iCAL36Q-4): 14.8 µM
- Ki (H-iCAL36): 450 µM
- Ki (V-iCAL36): 190 µM
- Ki (iCAL36): 22.6 µM
- Ki (iCAL36VQD-3): > 1000 µM
- Ki [5]: 29 µM
